Test results as given in patent US10221167B2, “Hydroxyalkylamine- and hydroxycycloalkylamine-substituted diamine-arylsulfonamide compounds with selective activity in voltage-gated sodium channels” (Merck Sharp & Dohme Corp., priority 2015, dated 2019).

Sequences of proteins named here, by UniProt entry; tags and fusion partners are left off.
UniProt Q14524, whole entry: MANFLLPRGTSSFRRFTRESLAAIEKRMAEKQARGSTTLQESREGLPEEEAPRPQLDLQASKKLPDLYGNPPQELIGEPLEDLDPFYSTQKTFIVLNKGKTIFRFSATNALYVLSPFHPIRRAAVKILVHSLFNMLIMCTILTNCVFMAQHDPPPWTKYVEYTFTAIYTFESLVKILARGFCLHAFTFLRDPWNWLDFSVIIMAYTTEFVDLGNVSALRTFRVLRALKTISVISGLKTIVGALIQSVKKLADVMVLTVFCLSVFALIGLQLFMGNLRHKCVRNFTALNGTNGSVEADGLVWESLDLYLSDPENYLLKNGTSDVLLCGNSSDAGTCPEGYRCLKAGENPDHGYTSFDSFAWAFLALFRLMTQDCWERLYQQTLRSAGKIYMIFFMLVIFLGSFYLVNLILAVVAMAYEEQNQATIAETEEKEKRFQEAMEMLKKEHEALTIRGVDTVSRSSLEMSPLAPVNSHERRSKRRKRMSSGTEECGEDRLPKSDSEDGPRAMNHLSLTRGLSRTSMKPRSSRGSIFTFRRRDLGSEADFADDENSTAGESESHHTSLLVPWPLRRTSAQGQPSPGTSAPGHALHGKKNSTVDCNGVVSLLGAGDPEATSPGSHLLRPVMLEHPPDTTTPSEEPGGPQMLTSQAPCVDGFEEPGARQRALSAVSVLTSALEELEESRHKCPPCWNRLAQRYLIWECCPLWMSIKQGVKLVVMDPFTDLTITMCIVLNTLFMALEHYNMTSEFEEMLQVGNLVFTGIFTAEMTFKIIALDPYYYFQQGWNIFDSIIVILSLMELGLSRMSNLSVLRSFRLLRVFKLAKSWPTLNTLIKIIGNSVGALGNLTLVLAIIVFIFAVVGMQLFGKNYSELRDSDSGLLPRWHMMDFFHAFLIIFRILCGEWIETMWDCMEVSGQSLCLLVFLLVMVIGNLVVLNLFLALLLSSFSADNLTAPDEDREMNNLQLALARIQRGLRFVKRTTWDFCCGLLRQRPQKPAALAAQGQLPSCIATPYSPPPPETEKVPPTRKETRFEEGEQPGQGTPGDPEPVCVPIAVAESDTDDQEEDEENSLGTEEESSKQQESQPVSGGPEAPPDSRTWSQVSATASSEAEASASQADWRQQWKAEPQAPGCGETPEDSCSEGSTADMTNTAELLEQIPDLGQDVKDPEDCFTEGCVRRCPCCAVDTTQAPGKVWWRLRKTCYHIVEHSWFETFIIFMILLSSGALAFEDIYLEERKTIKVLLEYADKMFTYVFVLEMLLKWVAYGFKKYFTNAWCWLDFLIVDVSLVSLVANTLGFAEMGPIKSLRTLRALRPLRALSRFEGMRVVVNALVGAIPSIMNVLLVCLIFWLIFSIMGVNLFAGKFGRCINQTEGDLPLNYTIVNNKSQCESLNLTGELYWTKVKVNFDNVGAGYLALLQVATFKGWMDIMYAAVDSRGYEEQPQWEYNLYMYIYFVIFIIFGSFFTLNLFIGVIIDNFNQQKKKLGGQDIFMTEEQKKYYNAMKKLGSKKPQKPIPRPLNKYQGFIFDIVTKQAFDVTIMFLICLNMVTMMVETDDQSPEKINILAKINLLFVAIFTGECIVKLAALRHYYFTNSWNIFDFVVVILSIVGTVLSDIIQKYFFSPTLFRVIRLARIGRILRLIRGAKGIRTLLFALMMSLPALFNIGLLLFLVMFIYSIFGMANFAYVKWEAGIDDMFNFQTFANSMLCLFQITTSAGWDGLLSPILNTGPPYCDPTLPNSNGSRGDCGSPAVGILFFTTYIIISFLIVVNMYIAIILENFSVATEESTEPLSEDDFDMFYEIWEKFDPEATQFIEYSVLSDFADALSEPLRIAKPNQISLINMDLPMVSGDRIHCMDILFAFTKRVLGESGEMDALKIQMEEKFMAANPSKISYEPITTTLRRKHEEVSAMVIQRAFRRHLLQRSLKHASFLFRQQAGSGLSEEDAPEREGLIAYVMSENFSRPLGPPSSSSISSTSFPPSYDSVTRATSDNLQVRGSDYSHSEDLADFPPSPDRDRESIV
UniProt Q15858, whole entry: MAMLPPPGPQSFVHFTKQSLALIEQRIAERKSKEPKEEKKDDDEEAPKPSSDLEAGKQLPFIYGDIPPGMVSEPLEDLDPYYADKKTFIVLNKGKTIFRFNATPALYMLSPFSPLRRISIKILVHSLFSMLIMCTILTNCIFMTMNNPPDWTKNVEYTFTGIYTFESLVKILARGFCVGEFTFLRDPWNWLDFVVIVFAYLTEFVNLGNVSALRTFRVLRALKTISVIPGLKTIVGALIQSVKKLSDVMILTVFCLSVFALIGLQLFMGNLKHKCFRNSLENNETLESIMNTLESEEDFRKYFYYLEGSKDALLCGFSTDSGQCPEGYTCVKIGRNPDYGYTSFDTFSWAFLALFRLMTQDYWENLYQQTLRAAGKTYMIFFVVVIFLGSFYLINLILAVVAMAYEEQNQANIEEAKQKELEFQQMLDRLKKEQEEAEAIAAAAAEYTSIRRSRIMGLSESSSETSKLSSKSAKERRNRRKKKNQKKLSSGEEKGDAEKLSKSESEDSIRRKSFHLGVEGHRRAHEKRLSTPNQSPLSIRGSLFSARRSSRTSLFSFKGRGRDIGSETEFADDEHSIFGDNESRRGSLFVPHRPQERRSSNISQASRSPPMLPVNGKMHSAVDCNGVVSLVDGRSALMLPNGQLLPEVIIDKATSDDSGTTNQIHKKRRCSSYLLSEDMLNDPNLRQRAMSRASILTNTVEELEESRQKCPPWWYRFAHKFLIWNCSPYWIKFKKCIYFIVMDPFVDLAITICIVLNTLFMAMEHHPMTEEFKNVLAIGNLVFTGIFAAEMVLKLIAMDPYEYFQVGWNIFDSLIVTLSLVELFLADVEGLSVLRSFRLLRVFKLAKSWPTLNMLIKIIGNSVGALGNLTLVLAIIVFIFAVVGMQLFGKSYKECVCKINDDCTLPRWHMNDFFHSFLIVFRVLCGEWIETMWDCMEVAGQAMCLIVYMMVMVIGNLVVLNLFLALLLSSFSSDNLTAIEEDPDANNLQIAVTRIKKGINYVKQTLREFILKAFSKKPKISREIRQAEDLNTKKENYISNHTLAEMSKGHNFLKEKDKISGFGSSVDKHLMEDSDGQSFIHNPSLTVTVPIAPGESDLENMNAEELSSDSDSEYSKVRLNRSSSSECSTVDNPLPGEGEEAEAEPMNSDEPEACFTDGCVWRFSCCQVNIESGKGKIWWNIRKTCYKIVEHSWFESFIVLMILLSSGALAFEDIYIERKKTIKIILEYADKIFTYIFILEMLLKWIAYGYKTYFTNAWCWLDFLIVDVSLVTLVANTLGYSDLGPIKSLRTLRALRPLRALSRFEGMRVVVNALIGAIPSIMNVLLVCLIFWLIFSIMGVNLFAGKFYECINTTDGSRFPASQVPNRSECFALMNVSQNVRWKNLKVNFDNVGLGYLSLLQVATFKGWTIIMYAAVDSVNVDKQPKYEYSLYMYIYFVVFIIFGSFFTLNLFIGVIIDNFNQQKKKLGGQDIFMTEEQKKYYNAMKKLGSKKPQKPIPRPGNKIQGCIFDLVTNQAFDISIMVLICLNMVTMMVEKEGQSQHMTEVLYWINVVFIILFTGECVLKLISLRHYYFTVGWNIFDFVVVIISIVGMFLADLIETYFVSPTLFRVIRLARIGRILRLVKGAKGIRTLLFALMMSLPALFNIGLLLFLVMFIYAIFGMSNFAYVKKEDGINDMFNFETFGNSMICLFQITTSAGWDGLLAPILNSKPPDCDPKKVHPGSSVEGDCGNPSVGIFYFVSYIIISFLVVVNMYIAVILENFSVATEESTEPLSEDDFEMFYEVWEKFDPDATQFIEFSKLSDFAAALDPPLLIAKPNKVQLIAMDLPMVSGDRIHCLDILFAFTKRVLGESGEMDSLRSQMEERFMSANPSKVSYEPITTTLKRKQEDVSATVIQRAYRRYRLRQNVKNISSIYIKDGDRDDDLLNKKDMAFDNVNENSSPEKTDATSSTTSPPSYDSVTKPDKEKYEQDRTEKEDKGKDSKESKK

Key:
[1] = molecular target: human Nav1.5 channels stably expressed in HEK 293 cells (Homo sapiens, UniProt Q14524); test: IonWorks Quattro automated patch-clamp, Nav1.5 (selectivity ratio versus Nav1.7); conditions: selectivity for Nav1.7 over Nav1.5, inactivated state block
Procedure: (§1) Compounds were tested on human Nav1.7 and Nav1.5 channels stably expressed in HEK 293 cells. Sodium current measurements on IonWorks Quattro: An automated patch-clamp assay on the IonWorks Quattro platform (Molecular Devices) was used to measure state-dependent inhibition of human Nav1.7 and 1.5 channels. Cells were sealed on a planar substrate using the Population Patch Plate (PPC) technology. Electrical access was obtained using both nystatin and amphotericin. A double-pulse protocol was used for the determination of IC50 values for inactivated state block. Nav1.7 and Nav1.5 expressing cells were voltage clamped at −100 mV and −110 mV, respectively. A depolarizing prepulse to −10 mV (Nav1.7) or −30 mV (Nav1.5) for 1000 ms followed by a 10 ms repolarization to −100 mV (Nav1.7) or −110 mV (Nav1.5) was given to generate fractional channel inactivation of ˜50%, followed by a 10 ms test pulse to −10 mV (Nav1.7) or −30 mV (Nav1.5) to measure peak current in control conditions and after compound addition. The following recording solutions were used (mM). External: 150 NaCl, 2 CaCl2, 5 KCl, 1 Mg Cl2, 10 HEPES, 12 Dextrose; internal: 120 CsF, 30 CsCl, 10 EGTA, 5 HEPES, 5 NaF, 2 MgCl2.
(§2) For all electrophysiology experiments, offline analysis was used to determine percent inhibition as a function of drug concentration. IC50 values were determined by fitting to the Hill equation. […]

[2] = molecular target: human Nav1.7 channels stably expressed in HEK 293 cells (Homo sapiens, UniProt Q15858); test: IonWorks Quattro automated patch-clamp, state-dependent inhibition of Nav1.7; conditions: read-out: potency for the Nav 1.7 sodium ion channel (as measured by IonWorks), inactivated state block, double-pulse protocol, holding -100 mV
Procedure: as §1, §2

O=S(=O)(Nc1ncns1)c1cc(Br)c(NCCCCN2CCNCC(O)C2)cc1F (centres unmarked)
ratio of Nav1.7 potency:Nav 1.5 potency [1]: ≥ 200 | IC50 [2]: 160 nM
